Tested on: four NR2 NMDA receptor subtypes (NR2A, NR2B, NR2C, NR2D with NR1-2b)
Format: cell-based, rat

CC(C)C[C@H](NC(=O)[C@H](CC(C(=O)O)C(=O)O)NC(=O)[C@H](CCCNC(=N)N)NC(=O)[C@H](C)NC(=O)[C@H](Cc1ccccc1)NC(=O)[C@H](CC(C(=O)O)C(=O)O)NC(=O)[C@@H]1C[C@@H](O)CN1C(=O)[C@H](C)NC(=O)[C@H](CCCCN)NC(=O)[C@H](CC(C(=O)O)C(=O)O)NC(=O)[C@H](C)NC(=O)[C@H](Cc1ccc(O)cc1)NC(=O)[C@H](CC(C(=O)O)C(=O)O)NC(=O)[C@H](CC(C(=O)O)C(=O)O)NC(=O)[C@H](CCC(=O)O)NC(=O)CN)C(=O)N[C@@H](C)C(=O)N[C@@H](CC(N)=O)C(N)=O [ConRl-B[L5Y]]
activity on the four NR2 NMDA receptor subtypes, in words: very similar to native conRl-B
